Among the data in US9108944B2, “Androgen receptor modulators and uses thereof” (ARAGON PHARMACEUTICALS, INC., priority 2010, dated 2015) are IC50 values, retold here.

Protein sequences, listed by entry. Tags and fused reporters are not part of them. Residues count along the entry.
UniProt P10275, 560-920 limits assumed: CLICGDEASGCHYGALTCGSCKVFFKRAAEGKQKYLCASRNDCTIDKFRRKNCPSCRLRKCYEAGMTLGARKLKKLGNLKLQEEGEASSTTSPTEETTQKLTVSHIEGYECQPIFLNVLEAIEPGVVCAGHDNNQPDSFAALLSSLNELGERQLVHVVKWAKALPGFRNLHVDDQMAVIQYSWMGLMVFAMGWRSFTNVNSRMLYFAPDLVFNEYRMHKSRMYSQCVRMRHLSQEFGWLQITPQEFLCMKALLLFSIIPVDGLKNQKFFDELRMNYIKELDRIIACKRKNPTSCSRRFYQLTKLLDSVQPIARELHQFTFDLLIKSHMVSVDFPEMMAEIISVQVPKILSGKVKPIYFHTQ

For orientation: IC50 means the midpoint of a concentration-inhibition curve.

The target in the assay is AR-VP16 (Homo sapiens, UniProt P10275). Put plainly: AR-VP16 DNA Binding Assay, antagonist mode (HepG2 cells, 0.1 nM R1881). Type of assay: cell-based. The following applies: read-out: ARVP16 DNA Binding Assay (Antagonist mode): IC50 < 1.0 μM.
Regarding `N#Cc1ncc(N2C(=O)C3(CCC3)N(c3ccc(N4CCNCC4)cc3)C2=S)cc1C(F)(F)F` [Compound 118, 5-(8-Oxo-5-(4-(piperazin-1-yl)phenyl)-6-thioxo-5,7-diazaspiro[3.4]octan-7-yl)-3-(trifluoromethyl)picolinonitrile], the IC50 is above 1000 nM. With `CN1CCC(Oc2ccc(N3C(=S)N(c4cnc(C#N)c(C(F)(F)F)c4)C(=O)C34CCC4)cc2)CC1` [Compound 129, 5-(5-(4-((1-Methylpiperidin-4-yl)oxy)phenyl)-8-oxo-6-thioxo-5,7-diazaspiro[3.4]octan-7-yl)-3-(trifluoromethyl)picolinonitrile] the figure was below 1000 nM; with `N#Cc1ncc(N2C(=O)C3(CCC3)N(c3ccc(O)cc3)C2=S)cc1C(F)(F)F` [Compound 63, 5-(5-(4-hydroxyphenyl)-8-oxo-6-thioxo-5,7-diazaspiro[3.4]octan-7-yl)-3-(trifluoromethyl)picolinonitrile], below 1000 nM.
